Laboratory results reported in patent publication US20250129135A1, “Multi-Agonist and Use Thereof” (priority 2021, published 2025).

Chains of the proteins cited; added tags and fusions are not shown. Residues count along the entry.
UniProt P47871, 26-477: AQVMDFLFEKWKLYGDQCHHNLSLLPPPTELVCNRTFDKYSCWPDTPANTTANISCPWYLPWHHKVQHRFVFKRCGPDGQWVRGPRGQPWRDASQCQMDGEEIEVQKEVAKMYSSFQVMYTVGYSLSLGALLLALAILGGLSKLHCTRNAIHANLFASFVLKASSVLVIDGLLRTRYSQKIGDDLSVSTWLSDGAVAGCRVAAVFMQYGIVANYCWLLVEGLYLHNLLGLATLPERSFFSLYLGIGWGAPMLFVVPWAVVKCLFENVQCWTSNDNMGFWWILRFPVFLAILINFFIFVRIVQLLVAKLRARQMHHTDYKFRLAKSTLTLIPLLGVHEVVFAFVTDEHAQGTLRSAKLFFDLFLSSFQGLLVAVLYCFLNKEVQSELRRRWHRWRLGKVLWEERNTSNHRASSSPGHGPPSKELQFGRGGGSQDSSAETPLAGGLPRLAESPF
UniProt P43220, 24-463: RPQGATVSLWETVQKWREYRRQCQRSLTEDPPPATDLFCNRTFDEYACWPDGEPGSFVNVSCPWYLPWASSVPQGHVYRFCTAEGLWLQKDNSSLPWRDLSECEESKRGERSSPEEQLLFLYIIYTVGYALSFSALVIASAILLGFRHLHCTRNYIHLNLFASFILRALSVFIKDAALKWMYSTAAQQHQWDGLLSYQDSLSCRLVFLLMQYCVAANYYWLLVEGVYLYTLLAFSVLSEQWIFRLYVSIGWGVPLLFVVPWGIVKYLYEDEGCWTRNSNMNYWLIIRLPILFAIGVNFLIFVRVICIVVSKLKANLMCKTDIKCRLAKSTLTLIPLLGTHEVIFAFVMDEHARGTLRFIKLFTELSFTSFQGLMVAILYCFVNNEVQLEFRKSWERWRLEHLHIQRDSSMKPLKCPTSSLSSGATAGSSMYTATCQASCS

Key:
[1] = molecular target: T1, Human GIP R (Homo sapiens, UniProt P48546); assay: cAMP (HTRF) activity in CHO cells stably overexpressing GIP receptor; type: cell-based
T1 construct: expressed in transfected cells; host or cells: CHO
T1 sequence (P48546 22-466): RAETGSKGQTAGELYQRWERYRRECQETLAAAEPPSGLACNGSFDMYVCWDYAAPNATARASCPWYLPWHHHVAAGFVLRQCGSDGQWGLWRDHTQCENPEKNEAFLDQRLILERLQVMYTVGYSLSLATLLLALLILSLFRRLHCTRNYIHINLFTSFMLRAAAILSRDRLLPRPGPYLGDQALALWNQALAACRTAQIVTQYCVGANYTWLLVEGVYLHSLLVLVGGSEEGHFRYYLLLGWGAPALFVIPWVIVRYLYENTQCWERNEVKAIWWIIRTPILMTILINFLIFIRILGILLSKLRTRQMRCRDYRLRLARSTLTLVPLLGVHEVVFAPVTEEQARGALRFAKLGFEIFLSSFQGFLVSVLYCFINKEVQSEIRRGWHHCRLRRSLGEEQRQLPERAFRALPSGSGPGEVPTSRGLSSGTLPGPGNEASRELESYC
In short: (§1)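 Cells in HBSS are exposed to compound for 60 min at room temperature, followed by 60 min with detection reagent. EC50 (nM) is taken from concentration-response curves.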

[2] = molecular target: T2, Human GCG R (Homo sapiens, UniProt P47871); assay: cAMP (HTRF) activity in HEK-293 cells stably overexpressing human GCG receptor; type: cell-based
T2 construct: expressed in transfected cells; host or cells: HEK-293
In short: as §1

[3] = test system: RIN-m5F cells; type: cell-based, rat
In short: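 After 60 min room-temperature exposure of HBSS-suspended RIN-m5F cells to compound and another 60 min with detection reagent, cellular cAMP level was determined.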

[4] = test system: 3T3-L1 adipocytes; conditions: for Rel. A (Relative Activity) on 3T3-L1 adipocyte: relative to GIP
In short: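 Compound-induced cAMP was measured in mature 3T3-L1 adipocytes after 60 min room-temperature exposure to a 10-concentration, 3-fold dilution series, followed by 60 min with kit detection reagent and curve fitting. Differentiation used IBMX/dexamethasone/insulin (5 days), insulin with 10 uM rosiglitazone (3 days), then 2–3 days in 10% FBS.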

[5] = test system: human primary liver cells; type: cell-based; conditions: for Rel. A (Relative Activity) on human primary liver cells: relative to GCG
In short: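 cAMP readout after 60 min with detection reagent, following 60 min room-temperature compound incubation. Cells were primary human liver cells thawed at 37° C and resuspended in HBSS.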

[6] = test system: C57 BL/6J DIO mice; assay: In vivo pharmacodynamics in high-fat diet induced obesity (DIO) mice; design: species or system mouse; conditions: Mean±SEM; for Weight change: Table 6-1; for LDL-C / TC (total cholesterol) / TG (plasma triglycerides): Table 7-1
Source text: High-fat diet induced obesity (DIO) mice have characteristics such as obesity, elevated blood sugar, insulin resistance, and lipid abnormalities, all of which are very significant metabolic syndromes similar to a human body. The effects of the compounds of the present application on body weight, food intake, blood sugar, and lipids in C57 BL/6J DIO mice were studied.
Obesity was induced in mice by feeding with a high-fat diet (60 kcal % of calories from fat). […] After grouping, one animal was raised in each cage for one week, during which each of the animals was injected subcutaneously (S.C.) with a solvent (1×PBS, 5 ml/kg) to pre-adapt the experimental operation process.
After the preparation of animals, vehicle control or compounds were administered to groups of animals by subcutaneous injection, in which the compounds were dissolved in 1×PBS, the dosage was 5 ml/kg, and the administration operation was started at 9:00 am and conducted once every three days (Q3D) for 15 days. Throughout the entire experimental study, animal weight and food intake were measured daily before administration, and compared with initial weight and food intake of the same animal before administration to calculate a percentage change in animal weight (%) and cumulative food intake, so as to evaluate the impact of compounds on changes in body weight and food intake.
At the end point of the experiment (Day 15), the body weight of the mice was measured, and then fasting blood glucose was measured by taking blood from the tail tip of broken tail without anesthesia. After the blood collection, the animals were anesthetized with CO2 and euthanized. Then, blood was taken from the heart and plasma was separated by centrifugation. The plasma was used to measure total cholesterol (TC), low-density lipoprotein cholesterol (LDL-C), triglycerides (TG), and blood insulin content. The liver was separated for homogenization, and then centrifuged to obtain the supernatant for determining triglyceride content in the liver.
All results were expressed in Mean±SEM, and the results were analyzed by one-way ANOVA using GraphPad Prism 5 software, followed by Dunnett's post hoc test compared to the Vehicle control group. The difference at the p<0.05 level was considered statistically significant.

[7] = molecular target: Human GLP-1R (Homo sapiens, UniProt P43220); assay: cAMP (HTRF) activity in HEK-293 cells stably overexpressing human GLP-1 receptor; type: cell-based; design: expressed in transfected cells; host or cells: HEK-293
In short: as §1

[8] = EC50 of human GIP / EC50 of compound
[9] = EC50 of human GCG / EC50 of compound
[10] = cAMP, at least 3 independent tests, read-out: EC50 on RIN-m5F rat pancreatic islet tumor cells
[11] = read-out: EC50 on mouse 3T3-L1 adipocyte, cAMP, at least 3 independent tests
[12] = cAMP, at least 3 independent tests, read-out: EC50 on human primary liver cells
[13] = EC50 of human GLP-1 (7-37) / EC50 of compound

CC[C@H](C)[C@H](NC(=O)[C@H](Cc1ccccc1)NC(=O)[C@H](C)NC(=O)C(C)(C)NC(=O)[C@H](CCC(N)=O)NC(=O)[C@H](C)NC(=O)[C@H](CCCCNC(=O)COCCOCCNC(=O)COCCOCCNC(=O)CC[C@H](NC(=O)CCCCCCCCCCCCCCCCCCC(=O)O)C(=O)O)NC(=O)[C@H](CCCCN)NC(=O)[C@H](CC(=O)O)NC(=O)[C@H](CC(C)C)NC(=O)[C@H](Cc1ccccc1)NC(=O)[C@@H](NC(=O)[C@H](CO)NC(=O)[C@H](Cc1ccc(O)cc1)NC(=O)[C@H](CC(=O)O)NC(=O)[C@H](CO)NC(=O)[C@@H](NC(=O)[C@](C)(Cc1ccccc1F)NC(=O)[C@@H](NC(=O)CNC(=O)[C@H](CCC(N)=O)NC(=O)C(C)(C)NC(=O)[C@@H](N)Cc1ccc(O)cc1)[C@@H](C)O)[C@@H](C)O)[C@@H](C)CC)C(=O)N[C@@H](CCC(=O)O)C(=O)N[C@@H](Cc1ccccc1)C(=O)N[C@@H](CC(C)C)C(=O)N[C@@H](CC(C)C)C(=O)N[C@@H](CCC(=O)O)C(=O)N[C@H](C(=O)NCC(=O)N1CCC[C@H]1C(=O)N[C@@H](CO)C(=O)N[C@@H](CO)C(=O)NCC(=O)N[C@@H](C)C(=O)N1CCC[C@H]1C(=O)N1CCC[C@H]1C(=O)NC1(C(=O)N[C@@H](CO)C(N)=O)CC1)[C@@H](C)O [Compound 9]
Human GIP R Rel. A (Relative Activity) [1, 8]: 385.11%
Human GCG R Rel. A (Relative Activity) [2, 9]: 91.94%
pEC50 [3, 10]: 9.49
Rel. A (Relative Activity) on RIN-m5F ([3]; relative to GLP-1(7-37)): 320.50%
pEC50 [4, 11]: 7.70
Rel. A (Relative Activity) on 3T3-L1 adipocyte [4]: 19.25%
pEC50 [5, 12]: 8.40
Rel. A (Relative Activity) on human primary liver cells [5]: 97.86%
Weight change ([6]; 3 nmol/kg s.c. Q3D for 15 days): −17.6 ± 1.51%
Weight change ([6]; 10 nmol/kg s.c. Q3D for 15 days): −21.5 ± 1.02%
Weight change ([6]; 30 nmol/kg s.c. Q3D for 15 days): −35.4 ± 3.61%
LDL-C ([6]; 3 nmol/kg, Day 15): 0.59 ± 0.024 mM
TC (total cholesterol) ([6]; 3 nmol/kg, Day 15): 4.00 ± 0.179 mM
TG (plasma triglycerides) ([6]; 3 nmol/kg, Day 15): 0.92 ± 0.063 mM
LDL-C ([6]; 30 nmol/kg, Day 15): 0.51 ± 0.028 mM
TC (total cholesterol) ([6]; 30 nmol/kg, Day 15): 2.72 ± 0.106 mM
TG (plasma triglycerides) ([6]; 30 nmol/kg, Day 15): 0.70 ± 0.023 mM
Blood sugar (fasting blood glucose) ([6]; Table 8-1, 3 nmol/kg, Day 15): 97.9 ± 4.07 mg/dL
Insulin (blood) ([6]; Table 8-1, 3 nmol/kg, Day 15): 25.2 ± 6.14 mIU/L
pEC50 [7]: 10.77
Human GLP-1R Rel. A (Relative Activity) [7, 13]: 258.82%

CC[C@H](C)[C@H](NC(=O)[C@H](Cc1ccccc1)NC(=O)[C@H](C)NC(=O)C(C)(C)NC(=O)[C@H](CCC(N)=O)NC(=O)[C@H](C)NC(=O)[C@H](CCCCNC(=O)COCCOCCNC(=O)COCCOCCNC(=O)CC[C@H](NC(=O)CCCCCCCCCCCCCCCCCCC(=O)O)C(=O)O)NC(=O)[C@H](CCCCN)NC(=O)[C@H](CC(=O)O)NC(=O)[C@H](CC(C)C)NC(=O)[C@](C)(CC(C)C)NC(=O)[C@@H](NC(=O)[C@H](CO)NC(=O)[C@H](Cc1ccc(O)cc1)NC(=O)[C@H](CC(=O)O)NC(=O)[C@H](CO)NC(=O)[C@@H](NC(=O)[C@](C)(Cc1ccccc1F)NC(=O)[C@@H](NC(=O)CNC(=O)[C@H](CCC(N)=O)NC(=O)C(C)(C)NC(=O)[C@@H](N)Cc1ccc(O)cc1)[C@@H](C)O)[C@@H](C)O)[C@@H](C)CC)C(=O)N[C@@H](CCC(=O)O)C(=O)N[C@@H](Cc1ccccc1)C(=O)N[C@@H](CC(C)C)C(=O)N[C@@H](CC(C)C)C(=O)N[C@@H](CCC(=O)O)C(=O)N[C@H](C(=O)NCC(=O)N1CCC[C@H]1C(=O)N[C@@H](CO)C(=O)N[C@@H](CO)C(=O)NCC(=O)N[C@@H](C)C(=O)N1CCC[C@H]1C(=O)N1CCC[C@H]1C(=O)N1CCC[C@H]1C(=O)N[C@@H](CO)C(N)=O)[C@@H](C)O [Compound 19]
pEC50 [1]: 11.10
Human GIP R Rel. A (Relative Activity) [1, 8]: 2262.50%
pEC50 [2]: 10.54
Human GCG R Rel. A (Relative Activity) [2, 9]: 196.55%
pEC50 [3, 10]: 9.83
Rel. A (Relative Activity) on RIN-m5F ([3]; relative to GLP-1(7-37)): 692.62%
pEC50 [4, 11]: 8.52
Rel. A (Relative Activity) on 3T3-L1 adipocyte [4]: 126.31%
pEC50 [5, 12]: 9.01
Rel. A (Relative Activity) on human primary liver cells [5]: 400.72%
Blood sugar (fasting blood glucose) ([6]; Table 8-2, 3 nmol/kg, Day 15): 142.0 ± 2.92 mg/dL
Insulin (blood) ([6]; Table 8-2, 3 nmol/kg, Day 15): 26.1 ± 4.77 mIU/L
Liver TG ([6]; Table 9-2, 3 nmol/kg, Day 15): 38.0 ± 3.37 mg
pEC50 [7]: 11.05
Human GLP-1R Rel. A (Relative Activity) [7, 13]: 488.89%

CC[C@H](C)[C@H](NC(=O)[C@H](Cc1ccccc1)NC(=O)[C@H](C)NC(=O)C(C)(C)NC(=O)[C@H](CCC(N)=O)NC(=O)[C@H](C)NC(=O)[C@H](CCCCNC(=O)COCCOCCNC(=O)COCCOCCNC(=O)CC[C@H](NC(=O)CCCCCCCCCCCCCCCCCCC(=O)O)C(=O)O)NC(=O)[C@H](CCCCN)NC(=O)[C@H](CC(=O)O)NC(=O)[C@H](CC(C)C)NC(=O)[C@](C)(CC(C)C)NC(=O)[C@@H](NC(=O)[C@H](CO)NC(=O)[C@H](Cc1ccc(O)cc1)NC(=O)[C@H](CC(=O)O)NC(=O)[C@H](CO)NC(=O)[C@@H](NC(=O)[C@](C)(Cc1ccccc1)NC(=O)[C@@H](NC(=O)CNC(=O)[C@H](CCC(N)=O)NC(=O)C(C)(C)NC(=O)[C@@H](N)Cc1ccc(O)cc1)[C@@H](C)O)[C@@H](C)O)[C@@H](C)CC)C(=O)N[C@@H](CCC(=O)O)C(=O)N[C@@H](Cc1ccccc1)C(=O)N[C@@H](CC(C)C)C(=O)N[C@@H](CC(C)C)C(=O)N[C@@H](CCC(=O)O)C(=O)NCC(=O)NCC(=O)N1CCC[C@H]1C(=O)N[C@@H](CO)C(=O)N[C@@H](CO)C(=O)NC(C)(C)C(=O)N[C@@H](Cc1c[nH]cn1)C(=O)N1CCC[C@H]1C(=O)N1CCC[C@H]1C(=O)N1CCC[C@H]1C(=O)N[C@@H](CO)C(N)=O [Compound 36]
pEC50 [1]: 11.15
Human GIP R Rel. A (Relative Activity) [1]: 2585.71%
Human GCG R Rel. A (Relative Activity) [2]: 126.67%
pEC50 [3]: 9.70
Rel. A (Relative Activity) on RIN-m5F [3]: 516.00%
pEC50 [4]: 8.99
Rel. A (Relative Activity) on 3T3-L1 adipocyte [4]: 373.84%
pEC50 [5]: 9.21
Rel. A (Relative Activity) on human primary liver cells [5]: 635.78%
Human GLP-1R Rel. A (Relative Activity) [7]: 176.00%
pEC50 ([7]; stable transfected cell cAMP activity, at least 3 independent tests, read-out: Human GLP-1R EC50): 10.60

pEC50: −log10 of the molar value. Where two headings read alike, the source gives them in different places.
